The list shows a part of the results, in another mix than the full data. Activity calls are given as the source filed them.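 Rule for the calls: active = viability loss from added drug above about 55%, and viability with drug at most 40%, in both replicates (limit read from the data, passing the limit was not always enough); inconclusive = both conditions met in only one replicate; inactive = neither replicate meets both conditions.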
Assay: reversal of MRP1-mediated doxorubicin resistance, pilot screen, H69AR cells, doxorubicin co-treatment (AID 601)
Settings: H69AR cells + 2 uM doxorubicin, CellTiter-Glo, 72 h; at 10 µM; active compounds read high

Structure (SMILES)	differential viability (reversal)
CCOP1(=S)c2c(C)nn(CCC#N)c2N=C(c2ccccc2F)N1C (stereo not given)	inactive: -0.26%
Cc1nn(-c2ccccc2)c2c1P(=O)(N1CCOCC1)N(C)C(c1ccccc1)=N2 (stereo not given)	inactive: -6.58%
O=C(COc1ccccc1)OC1CN2CCC1CC2 (stereo not given)	inactive: 8.71%
COP1(=S)c2c(C)nn(CCC#N)c2N=C(c2ccc(F)cc2)N1C (stereo not given)	inactive: -4.32%
O=P(Nc1nccs1)(c1ccccc1)c1ccccc1	inactive: 11%
